In US20150051262A1, “NMDA RECEPTOR MODULATORS AND USES THEREOF” (Northwestern University, priority 2011, published 2015):

Key:
NMDA receptor = NMDA receptor (Rattus norvegicus, UniProt P35439); experiment: [^3H] MK-801 binding assay; conditions: for Efficacy (% Increase in [^3H] MK-801 Binding): best-fit top value, 50 μM glutamate
floating behavior = experiment: Porsolt test procedure 1; type: in vivo, Sprague-Dawley rats; conditions: 1 hr before testing
NMDAR = NMDAR (Rattus norvegicus, UniProt P35439); conditions: concentration 1 μM
[1] = system: Schaffer collateral-CA 1 synapses; conditions: concentration 1 uM

Structure (SMILES) | Efficacy (% Increase in [^3H] MK-801 Binding) (NMDA receptor) | Emax (NMDA receptor; read-out: Efficacy (% Increase in [^3H] MK-801 Binding)) | % Reduction in Floating (floating behavior; 1 mg/kg, p.o.) | Efficacy (% Change in NMDAR Current from Baseline) (NMDAR) | Efficacy (% Increase from Vehicle) in LTP [1] | % Reduction in Floating (floating behavior; 3 mg/kg, i.v.)
NC(=O)[C@H](CO)NC(=O)[C@@H]1CCCN1C(=O)[C@@H]1CCCN1C(=O)[C@@H](N)CO [CM-3, (S)-N-((S)-1-amino-3-hydroxy-1-oxopropan-2-yl)-1-((S)-1-((S)-2-amino-3-hydroxy-propanoyl)-pyrrolidine-2-carbonyl)-pyrrolidine-2-carboxamide] | 23% |  |  |  |  | 
C[C@@H](O)[C@H](N)C(=O)N1CCC[C@H]1C(=O)N1CCC[C@@]1(Cc1ccccc1)C(=O)N[C@H](C(N)=O)[C@@H](C)O [CM-4A, (R)-N-((2S,3R)-1-amino-3-hydroxy-1-oxobutan-2-yl)-1-((S)-1-((2S,3R)-2-amino-3-hydroxybutanoyl)pyrrolidine-2-carbonyl)-2-benzylpyrrolidine-2-carboxamide] |  | 12% | 84% | 75% | 30% | 
C[C@@H](O)[C@H](N)C(=O)N1CCC[C@H]1C(=O)N1CCC[C@]1(Cc1ccccc1)C(=O)N[C@H](C(N)=O)[C@@H](C)O [CM-4B, (S)-N-((2S,3R)-1-amino-3-hydroxy-1-oxobutan-2-yl)-1-((S)-1-((2S,3R)-2-amino-3-hydroxybutanoyl)-pyrrolidine-2-carbonyl)-2-benzylpyrrolidine-2-carboxamide] | 12% |  | 63% | 10% | 10% | 
C[C@@H](O)[C@H](NC(=O)[C@@H]1CCCN1C(=O)[C@@H]1CCCN1C(=O)[C@@H](N)CO)C(N)=O [CM-1, (S)-N-((2S,3R)-1-amino-3-hydroxy-1-oxobutan-2-yl)-1-((S)-1-((S)-2-amino-3-hydroxypropanoyl)pyrrolidine-2-carbonyl)pyrrolidine-2-carboxamide] | 79% |  |  | 70% |  | 90%
